scFv variants of Ab-91 (heavy chain) against a SARS-CoV-2 spike peptide

Binding partner: SARS-CoV-2 spike HR2 peptide, sequence PDVDLGDISGINAS.

Ab-91 is the parent antibody, in scFv form: VL, then three GGGGS repeats, then VH. The light chain is unchanged in all variants.
VL: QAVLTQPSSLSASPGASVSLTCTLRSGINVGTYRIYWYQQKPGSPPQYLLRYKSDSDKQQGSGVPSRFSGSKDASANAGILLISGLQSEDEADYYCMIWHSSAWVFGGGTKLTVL
VH: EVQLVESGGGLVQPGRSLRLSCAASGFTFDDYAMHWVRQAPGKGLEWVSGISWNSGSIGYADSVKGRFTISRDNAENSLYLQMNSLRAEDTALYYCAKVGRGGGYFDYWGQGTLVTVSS

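Variants in AAYL51 differ from the parent at up to three CDR positions; double and triple changes were sampled at random. Affinity was read by AlphaSeq, a pooled yeast mating assay with surface-displayed partners. Binding brings cells together so that they mate, and sequencing counts the barcode pairs among the diploids. Read counts were normalised to the haploid input and turned into Kd by a linear fit to BCL2-family pairs of known affinity, for each replicate. The assay was run in three technical replicates.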

Changes read parent residue, position, new residue, counted from the first residue of the VH shown. Scale: log10 of Kd in nM, estimated from mating counts; low values are strong binders. "nd" means that the variant was in the library but no mating with the target was seen in that replicate; the authors take this as a sign of poor binding, and no number exists. For reference, the parent read 1.86 as the reference entry and 0.88 as a member of this library. Empty control strains, which show no peptide, gave a signal in 21% of pairings with library AAYL51; the median was 4.54 and 95% of these signals were weaker than 3.26. No background was subtracted. For each scFv, signals with the empty controls are counted beside the result, with their mean in brackets.

changes,log10 Kd (nM) by replicate,empty controls
D30I G50A Y105K,nd / 3.77 / nd,3 of 9 (4.44)
V99T G102R G104H,4.76 / nd / nd,3 of 9 (3.89)
T28P G100V G103K,nd / nd / nd,0 of 9
M34L G59Y V64C,nd / nd / nd,1 of 9 (2.91)
S52A F106L D107Y,nd / 3.34 / nd,1 of 9 (4.16)
S57Q A61Y V99D,nd / 5.47 / nd,1 of 9 (4.65)
S52A I58W G100Y,5.85 / 5.82 / 5.08,3 of 9 (5.63)
A33N S52R W53V,4.77 / nd / nd,1 of 9 (3.72)
T28A S57W A61Y,nd / nd / nd,1 of 9 (3.36)
G26Y Y32H D62W,nd / nd / nd,1 of 9 (2.96)
D31H H35G D62Q,3.24 / nd / nd,6 of 9 (3.63)
S52N S55Q V64H,3.67 / nd / nd,5 of 9 (3.98)
T28S Y32N K65S,nd / nd / nd,2 of 9 (4.78)
S55A D62K Y108I,3.35 / 4.06 / 4.32,1 of 9 (3.34)
M34S I51H,nd / nd / nd,0 of 9
G26F F27H G102K,nd / nd / nd,0 of 9
S55E R101T G104I,5.85 / 4.74 / nd,4 of 9 (4.54)
F29V V99H Y105T,4.25 / 3.78 / 3.93,4 of 9 (4.86)
G100T G103T,4.54 / 5.06 / 5.92,6 of 9 (4.83)
A61P K65R Y108I,3.84 / nd / nd,0 of 9
D30S I58L F106I,1.97 / 1.78 / 2.01,6 of 9 (5.03)
S52Y Y60S A61C,nd / nd / nd,0 of 9
F27R D30K G102F,4.89 / nd / nd,2 of 9 (4.38)
F29H G104H,5.75 / 5.05 / nd,2 of 9 (3.37)
G26A G59N V99R,4.55 / nd / nd,0 of 9
G26S V99E F106D,nd / nd / nd,0 of 9
K65A F106S D107G,5.42 / 3.63 / 3.93,2 of 9 (4.34)
G56N D62L G103S,2.46 / 2.74 / 2.05,4 of 9 (4.16)
G50P R101L Y108G,nd / nd / nd,2 of 9 (4.83)
G26S G56N Y108L,1.47 / 1.96 / 1.08,0 of 9
G56L S57R G103W,nd / 4.39 / nd,0 of 9
Y60T G102I G103V,4.72 / nd / 4.04,4 of 9 (4.16)
I51M Y108C,2.54 / 2.93 / 2.59,5 of 9 (5.10)
D62V V64A G103E,nd / 5.69 / 5.22,4 of 9 (5.05)
G56W S57I F106A,nd / nd / nd,1 of 9 (2.94)
Y60C G100P R101Y,3.16 / nd / nd,0 of 9
D30K I58W G104T,nd / nd / 3.55,4 of 9 (4.47)
T28V H35A R101H,3.30 / nd / nd,2 of 9 (4.03)
D30R I51T Y60F,nd / nd / nd,1 of 9 (3.58)
D31E S63I D107Y,nd / nd / nd,0 of 9

The 7 strongest on average among those seen in every replicate, once more:

| changes | log10 Kd (nM) by replicate | empty controls |
|---|---|---|
| G26S G56N Y108L | 1.47 / 1.96 / 1.08 | 0 of 9 |
| D30S I58L F106I | 1.97 / 1.78 / 2.01 | 6 of 9 (5.03) |
| G56N D62L G103S | 2.46 / 2.74 / 2.05 | 4 of 9 (4.16) |
| I51M Y108C | 2.54 / 2.93 / 2.59 | 5 of 9 (5.10) |
| S55A D62K Y108I | 3.35 / 4.06 / 4.32 | 1 of 9 (3.34) |
| F29V V99H Y105T | 4.25 / 3.78 / 3.93 | 4 of 9 (4.86) |
| K65A F106S D107G | 5.42 / 3.63 / 3.93 | 2 of 9 (4.34) |

From the AlphaSeq antibody data of Engelhart et al. 2022 (doi:10.1038/s41597-022-01779-4), copy in the FLAb collection.